Target: T1, CYP1B1 (Homo sapiens, UniProt Q16678)
T1 sequence (Q16678 1-543): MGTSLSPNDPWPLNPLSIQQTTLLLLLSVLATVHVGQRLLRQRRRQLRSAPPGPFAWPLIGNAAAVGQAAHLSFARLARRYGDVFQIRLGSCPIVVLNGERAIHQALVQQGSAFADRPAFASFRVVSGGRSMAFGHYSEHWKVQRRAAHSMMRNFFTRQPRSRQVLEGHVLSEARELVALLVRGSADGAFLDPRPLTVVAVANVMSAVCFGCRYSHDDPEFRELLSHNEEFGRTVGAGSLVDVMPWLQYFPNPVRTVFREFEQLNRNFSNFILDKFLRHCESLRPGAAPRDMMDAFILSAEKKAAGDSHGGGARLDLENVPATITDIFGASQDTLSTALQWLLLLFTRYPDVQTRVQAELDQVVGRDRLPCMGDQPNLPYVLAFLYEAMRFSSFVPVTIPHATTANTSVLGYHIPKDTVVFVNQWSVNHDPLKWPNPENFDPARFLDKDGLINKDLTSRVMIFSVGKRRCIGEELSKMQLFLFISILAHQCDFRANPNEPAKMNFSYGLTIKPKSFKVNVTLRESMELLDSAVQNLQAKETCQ
Assay: CYP1B1 substrate prediction model (Gaussian Kernel weighted k-NN)
Settings: predicted versus actual

For O=c1cc(-c2ccccc2)oc2c1ccc1ccccc12 [α-napthoflavone, α-naphthoflavone], the “% CYP1B1 substrate inhibition accuracy” value was 93%.

— patent publication US20120302748A1, “TREATMENT OR PROPHYLAXIS OF PROLIFERATIVE CONDITIONS” (THE UNIVERSITY COURT OF THE UNIVERSITY OF DUNDEE, priority 2009, published 2012)
